Experimental data taken from IntAct's records for PubMed 25203322.

B1: Zinc finger protein SNAI1 (Homo sapiens), O95863 (parent)
chain: MPRSFLVRKPSDPNRKPNYSELQDSNPEFTFQQPYDQAHLLAAIPPPEILNPTASLPMLIWDSVLAPQAQPIAWASLRLQESPRVAELTSLSDEDSGKGSQPPSPPSPAPSSFSSTSVSSLEAEAYAAFPGLGQVPKQLAQLSEAKDLQARKAFNCKYCNKEYLSLGALKMHIRSHTLPCVCGTCGKAFSRPWLLQGHVRTHTGEKPFSCPHCSRAFADRSNLRAHLQTHSDVKKYQCQACARTFSRMSLLHKHQESGCSGCPR
partner: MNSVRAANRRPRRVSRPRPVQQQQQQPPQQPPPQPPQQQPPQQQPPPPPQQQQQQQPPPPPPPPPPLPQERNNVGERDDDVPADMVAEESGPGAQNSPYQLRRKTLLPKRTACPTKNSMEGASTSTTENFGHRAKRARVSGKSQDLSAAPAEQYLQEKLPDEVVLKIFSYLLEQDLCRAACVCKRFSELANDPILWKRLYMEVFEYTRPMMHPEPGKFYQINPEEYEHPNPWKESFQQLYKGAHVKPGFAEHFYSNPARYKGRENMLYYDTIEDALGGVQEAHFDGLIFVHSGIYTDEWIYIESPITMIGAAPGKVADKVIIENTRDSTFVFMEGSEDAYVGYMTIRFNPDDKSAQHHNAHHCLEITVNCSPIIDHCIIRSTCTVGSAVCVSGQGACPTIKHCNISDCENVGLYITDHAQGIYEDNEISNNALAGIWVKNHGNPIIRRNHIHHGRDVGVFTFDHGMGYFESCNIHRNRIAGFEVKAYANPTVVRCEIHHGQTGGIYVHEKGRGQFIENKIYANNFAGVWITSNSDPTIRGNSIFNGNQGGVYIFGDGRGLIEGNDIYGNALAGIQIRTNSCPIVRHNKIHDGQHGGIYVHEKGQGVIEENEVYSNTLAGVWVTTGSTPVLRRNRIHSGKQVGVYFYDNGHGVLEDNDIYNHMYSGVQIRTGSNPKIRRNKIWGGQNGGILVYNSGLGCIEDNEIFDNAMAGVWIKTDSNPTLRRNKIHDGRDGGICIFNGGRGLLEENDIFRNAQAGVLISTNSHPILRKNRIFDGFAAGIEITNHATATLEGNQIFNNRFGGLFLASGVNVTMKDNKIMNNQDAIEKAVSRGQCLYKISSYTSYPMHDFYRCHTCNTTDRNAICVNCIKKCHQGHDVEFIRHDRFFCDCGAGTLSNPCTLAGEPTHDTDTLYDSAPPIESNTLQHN

Variants of: B1
Conditions: with fbx11_human FBXO11, Q86XK2

Variant	effect of a mutation on the interaction
R8A	disrupting interaction strength
L6A	disrupting interaction strength
S11A	disrupting interaction strength
S11V	disrupting interaction strength
S11E	increasing interaction strength
